Assay outcomes from PubChem.
Vif imaging: blocks HIV Vif function; HEK293T cells, Vif self-association by quenched fluorescence, imaging, 24 h; inhibition, % at 7.49 µM; 340,000 tested, 0.35% active; AID 602346; in the data active means inhibition above about 50%, passing the limit was not always enough
CAL PDZ FP-1: blocks peptide binding to the human CAL PDZ domain; purified CAL PDZ, TMR-peptide fluorescence polarization, 1 h; inhibition, % at 24.9 µM; 300,000 tested, 0.92% active;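 active means mean inhibition of at least 30% with at least half of replicates also reaching 30%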;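 further: 0% = DMSO neutral control and 100% = excess unlabeled competitor peptide PRC23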
ARNT-TACC3 inh: disrupts binding between human ARNT and TACC3; Q9Y6A5; 390,000 tested, 0.66% active; AlphaScreen His-ARNT PAS-B/GST-TACC3 binding, luminescence; TACC3 fragment carries E629A point mutation; inhibition, % at 9.99 µM;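 active means mean inhibition of replicates at least 50% and at least half of replicates each reaching 50%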;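 further: 0% = complete ARNT plus TACC3 wells and 100% = ARNT alone without TACC3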
CAL PDZ FP-2: inhibitors of human CAL PDZ peptide binding; inhibition, % at 20 µM; purified CAL PDZ, TMR-peptide fluorescence polarization, 1 h; AID 504414; 330,000 tested, 0.02% active;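 active means highest replicate inhibition of at least 40%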;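 further: plate controls were DMSO neutral control wells for no effect and unlabeled competitor peptide control wells for full effect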
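System: tagged CAL PDZ domain. Schedule: 1 h room-temperature incubation prior to read. Signal: fluorescence polarization (mP). Measure: percent inhibition from loss of millipolarization.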
UUG fidelity: alters start codon recognition fidelity in yeast; S. cerevisiae UUG-firefly luciferase reporter, luminescence/redox ratio; activity score, % at 18.7 µM; actives 0.13% (n = 350,000); AID 602363;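 active = replicate mean at a twofold rise or more, about +100% in these data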;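 also: firefly luciferase made from a UUG start codon reports start codon fidelity; reporter light over untreated wells divided by growth signal over untreated wells; some hits fall short of that in this replicate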
PglD inh: blocks C. jejuni PglD acetyltransferase activity; purified PglD enzyme, DTNB colorimetric CoA detection; inhibition, % at 12.5 µM; 360,000 tested, 0.098% active; AID 602405; in the data active means inhibition above about 16%, passing the limit was not always enough
PglD inh SP: PglD (C. jejuni) inhibition confirmation; AID 743156; Purified C. jejuni PglD, DTNB absorbance 412 nm; 320 tested, under 10 active; shares compounds with PglD inh; inhibition, % at 20 µM;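 active means mean inhibition across replicates of at least 20% with every single replicate also at 20% or more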;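 further: initial rate of CoA release by acetyl transfer from AcCoA to the UDP-4-amino sugar; 0% = median of neutral control wells and 100% = median of positive control wells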
* hit, by the source's call; / = no result. In the library only some 1.6% were active in any assay of this set; here they are far more common.

Codes – A = Vif imaging; B = CAL PDZ FP-1; C = ARNT-TACC3 inh; D = CAL PDZ FP-2; E = UUG fidelity; F = PglD inh; G = PglD inh SP
COC(=O)NCc1cccc(CNC(=O)OC)c1
  A = -22; B = 2; C = 30; D = -1; E = -3; F = 30*; G = 2
CCOC(=O)C1CCCN(C2CC(=O)N(c3ccc(N4C(=O)CC(N5CCCC(C(=O)OCC)C5)C4=O)cc3)C2=O)C1 (stereo not drawn)
  A = -6; B = -1; C = -8; D = -2; E = 5; F = -16; G = /
CCOC(=O)C1CCCN(C2CC(=O)N(c3ccccc3)C2=O)C1 (stereo not drawn)
  A = 1; B = -4; C = -5; D = -2; E = -22; F = 27*; G = -3
COc1cccc(CNC(=O)C[C@H]2CC[C@H]3[C@H](COc4ccc(NC(C)=O)cc4C(=O)N3C)O2)c1
  A = /; B = /; C = 0; D = /; E = 0; F = -8; G = /
CCN=C1Sc2nc3ccc(OCC)cc3cc2CN1CCOC
  A = -2; B = -1; C = 19; D = -1; E = -20; F = 21*; G = -1
CCN1C(=O)CC(N2CCN(c3ccc(C(=O)c4ccccc4)cc3)CC2)C1=O (stereo not drawn)
  A = -3; B = 7; C = 2; D = -4; E = -3; F = -7; G = /
CCN1C(=O)CC(N2CCN(c3ccc(Cl)cc3)CC2)C1=O (stereo not drawn)
  A = 4; B = -2; C = /; D = -1; E = -8; F = 35*; G = 2
CCCCNC(=O)Cc1ccc(C)cc1
  A = -3; B = -4; C = -6; D = -1; E = /; F = /; G = /
CCC(C)(C)NC(=O)Cc1ccc(C)cc1
  A = 22; B = -1; C = -3; D = -2; E = -9; F = 48*; G = -2
CO[C@@H]1CN(C)C(=O)c2ccc(NC(=O)C3CCCC3)cc2OC[C@@H](C)N(S(=O)(=O)c2ccc(Cl)cc2)C[C@H]1C
  A = /; B = /; C = 7; D = /; E = /; F = 0; G = /
O=C(Nc1cc(Cl)cc(Cl)c1)N[C@H]1CC[C@@H](CCNS(=O)(=O)c2cccc(F)c2)O[C@@H]1CO
  A = /; B = /; C = /; D = /; E = 3; F = 4; G = /
O=C(Nc1ccc(F)cc1)N[C@H]1CC[C@H](CCn2cc(-c3ccc(F)cc3)nn2)O[C@H]1CO
  A = /; B = /; C = -36; D = /; E = -16; F = 0; G = /
O=S(=O)(c1ccc(F)cc1)N1CCCC(CO)C1 (stereo not drawn)
  A = 1; B = -4; C = 3; D = -1; E = -1; F = 33*; G = -2
Cc1noc(C)c1NC(=O)Nc1cccc2c1O[C@H](CN(C)Cc1ccc(Cl)c(Cl)c1)[C@H](C)CN([C@@H](C)CO)C2=O
  A = /; B = /; C = 8; D = /; E = 12; F = -4; G = /
O=C(Oc1coc(CSc2nnc(NC(=O)C3CC3)s2)cc1=O)c1c(F)cccc1F
  A = -2; B = -4; C = -3; D = -3; E = -13; F = 63*; G = 4
COc1ccc(/C=C(/NC(=O)c2ccccc2)C(=O)N2CCCC2)cc1
  A = 11; B = -1; C = -1; D = -2; E = 1; F = 58*; G = -7
CC(C)NC(=O)N(C)C[C@H]1Oc2ccc(NC(=O)Nc3ccc(F)cc3)cc2CC(=O)N([C@@H](C)CO)C[C@@H]1C
  A = /; B = /; C = -3; D = /; E = 0; F = 0; G = /
O=C(OCC(=O)N1CCCC1)c1cnc(Cl)c(Cl)c1
  A = 6; B = /; C = 8; D = 0; E = -9; F = 25*; G = -11
O=C(OCC(=O)N1CCCc2ccccc21)c1cnc(Cl)c(Cl)c1
  A = 1; B = 4; C = -4; D = -1; E = /; F = /; G = /
CC(C)NC(=O)N(C)C[C@@H]1OCCCC[C@@H](C)Oc2ccc(NC(=O)NC3CCCCC3)cc2C(=O)N([C@@H](C)CO)C[C@H]1C
  A = /; B = /; C = 16; D = /; E = 1; F = -1; G = /

Looked up above:
`COc1ccc(/C=C(/NC(=O)c2ccccc2)C(=O)N2CCCC2)cc1` – PglD inh: 58*
`O=S(=O)(c1ccc(F)cc1)N1CCCC(CO)C1` (stereo not drawn) – PglD inh: 33*

(cont.)
Codes – A = Vif imaging; B = CAL PDZ FP-1; C = ARNT-TACC3 inh; D = CAL PDZ FP-2; E = UUG fidelity; F = PglD inh; G = PglD inh SP
Cc1noc(C)c1NC(=O)Nc1ccc2c(c1)C(=O)N([C@H](C)CO)C[C@H](C)[C@@H](CN(C)S(=O)(=O)c1cn(C)cn1)OCCCC[C@H](C)O2
  A = /; B = /; C = -4; D = /; E = 10; F = -1; G = /
O=C(NCCC1=CCCCC1)c1cnsn1
  A = 1; B = -3; C = -5; D = 0; E = 0; F = 42*; G = -1
Cc1ccc(C(=O)COC(=O)CCC(=O)Nc2ccccc2Cl)cc1[N+](=O)[O-]
  A = 2; B = -1; C = -7; D = 1; E = -12; F = 4; G = /
Cc1ccc(C(=O)COC(=O)CCCC(=O)Nc2cc(C(F)(F)F)ccc2Cl)cc1C
  A = 2; B = -5; C = -1; D = 0; E = 2; F = 24*; G = 3
O=C(CCCCCCC(=O)NCc1ccccc1)NCc1ccccc1
  A = 4; B = 4; C = -7; D = 0; E = -28; F = 84*; G = -13
O=C(CCCC(=O)NCc1ccccc1)NCc1ccccc1
  A = -2; B = -4; C = 0; D = -1; E = -5; F = 1; G = /
